Sampled rows, rich in hits. Any-hit rate of the full collection: about 1.3%.
miR-21 reporter – miR-21 reporter, rising signal; HeLa miR-21 FLuc reporter, luciferase, 48 h; Potency, µM (titrated, usually from 38.3 µM); AID 2288; 340,000 tested, under 10 active; active = well fitted rising curve with a large enough effect; inconclusive = small, poorly fitted or top-dose-only effect; inactive = no such curve, though single readings can be large or run the other way;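 further: miR-21 action dims this reporter so a rising signal means less miR-21 action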
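Luminescence from a firefly luciferase reporter carrying a miR-21 binding site downstream, stably expressed under a CMV promoter in HeLa cells that make miR-21 endogenously, reports miRNA modulation after 48 h compound exposure up to approximately 40uM final.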
ALOX12 inh – blocks human arachidonate 12S-lipoxygenase | P18054 | actives 1.1% (n = 580,000) | Potency, µM (doses to about 108 µM), most hits filed as inhibitors | purified 12hLO, xylenol orange hydroperoxide absorbance | AID 1671190
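Hydroperoxide product was detected by ferrous iron/xylenol orange as the 573 to 405 nm absorbance ratio. Arachidonic acid at 40 uM (final) was turned over for 30 min at room temperature by 150 nM human 12hLO, pH 7.0 Hepes buffer, after 15 min compound preincubation.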
PINK1 expr mod – changes PINK1 expression. PINK1 immunofluorescence, high-content cytometry, 24 h. AID 624263. Potency, µM (titrated, usually from 76.6 µM), usual class: activators. actives 0.2% (n = 410,000); active = well fitted activation curve with a large enough effect; inconclusive = small, poorly fitted or top-dose-only effect; cell line not stated here; note: nearly all actives have a fitted effect of over 65% in size
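PINK1 protein level read as immunofluorescence by microplate cytometer in a fixed, stained stable cell line after 24 h exposure to five compound concentrations, with CCCP as control.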
ERG Ets-DNA blk – blocks human ERG Ets domain binding to DNA. fluorescence polarization, His-ERG Ets domain / labelled DNA. actives 0.028% (n = 370,000). Potency, µM (doses to about 76.9 µM), usual class: inhibitors; active = well fitted inhibition curve with a large enough effect in the polarisation, with a control signal flat; inconclusive = small, poorly fitted or top-dose-only effect, or effect the other way, or a change in a side signal; inactive = no such curve, though single readings can be large or run the other way; the % refers to the polarisation;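 note: polarization taken with two DNA probes labelled with fluorescein and Texas red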
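His-tagged ERG Ets domain (1 uM in the protein solution; 300mM KCl, 50mM Tris-HCl, 1mM EDTA, 1mM DTT, pH 7.5) received compound, then a probe mix of 5 nM fluorescein-DNA and 100nM Texas-615-DNA. Fluorescence polarization was read for both dyes.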
PTHR1 agonist – activates the human parathyroid hormone receptor PTHR1; HEK293 GP2 PTHR1 cells, GloSensor cAMP luminescence, 1 h; actives 0.075% (n = 410,000); Potency, µM (doses to about 115 µM), usual class: activators; note: nearly all actives have a fitted effect of over 55% in size
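HEK-293-derived GP2 cells expressing PTHR1 and a GloSensor cAMP reporter, 3,000/well, plated overnight, given luciferin plus IBMX (each 0.5 mM as added) for 1 h at 37 °C, then compound for 1 h at 37 °C. Luminescence was read after 15 min at room temperature.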
Giardia killer – Giardia lamblia killing. activity change, % at 7.66 µM, hits read low. Giardia lamblia trophozoite viability. actives 0.15% (n = 340,000). AID 540267; in the data active = activity change below about -80%; inconclusive = between about -30% and that limit;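 note: parasites exposed to compound for two days anaerobically before the ATP read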
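Luminescent ATP signal served as the viability read-out, measured 15-30 min after adding ATP detection reagent to trophozoites that had been incubated with compounds for 48 hrs at 37 deg C anaerobically at 100 cells/well.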
Hits are given with their value; . = inactive; ? = inconclusive; / = no result given. Unless noted, calls come from the whole dose curve; as a rule, active = well fitted curve in the direction sought with a large enough effect; inconclusive = small, poorly fitted or top-dose-only effect, or another doubt; inactive = no such curve, though single readings can be large; an effect the other way counts as inactive or inconclusive.

SMILES	miR-21 reporter	ALOX12 inh	PINK1 expr mod	ERG Ets-DNA blk	PTHR1 agonist	Giardia killer
C/C(=N\NS(=O)(=O)c1ccc(Br)cc1)c1ccncc1	.	32µM	.	.	.	.
N=C1/C(=C/c2ccc(-c3cccc(C(=O)O)c3)o2)C(=O)N=C2SC=C(c3ccccc3)N12	.	28µM	.	.	.	.
CC(C)S(=O)(=O)C1=NSC2=NC(=O)/C(=C\c3ccc(-c4ccccc4)o3)C(=N)N21	.	25µM	.	/	.	.
CCc1ccc(Nc2oc(C)cc(=O)c2C(C)=O)cc1	.	.	.	.	.	.
CCOC(=O)NN1C(=O)c2ccccc2NC1c1cccs1 (stereo not given)	.	.	.	35µM	.	?
COc1ccc(NS(=O)(=O)c2ccc(N3CCCC3)c(NC(=S)Nc3ccc(SC(F)F)cc3)c2)cc1	.	25µM	.	.	.	.
CCNC(=O)Nc1cc(S(=O)(=O)Nc2ccc(OC)cc2)ccc1N1CCOCC1	/	/	.	.	.	.
COc1ccc(NS(=O)(=O)c2ccc(N3CCCC3)c(N)c2)cc1	.	.	.	.	.	.
COc1ccc(NS(=O)(=O)c2ccc(N3CCCC3)c(NC(=S)Nc3cccc(C)c3C)c2)cc1	.	16µM	.	.	.	.
CCCn1nc(C(=O)N2CCc3ccccc3C2)c2ccccc2c1=O	.	.	.	.	.	.
Cc1ccc(N2C(=S)N[C@H]3[C@@H](O)[C@H](O)C[C@@H](C(=O)NCc4cccs4)[C@H]32)cc1Cl	/	.	/	/	/	/
CC(=O)OC(C(=O)NC1CCCCC1)c1ccc(Cl)c(Cl)c1 (stereo not given)	.	.	.	.	.	.
O=[N+]([O-])c1ccc2c(c1)/C(=N\O)c1ccccc1-2	.	.	.	.	.	.
O=[N+]([O-])c1ccc2c(c1)-c1ccccc1C2O (stereo not given)	/	7.1µM	.	/	.	/
COc1cc(OC)c(/C=C/c2cc(/C=C/c3c(OC)cc(OC)cc3OC)[n+](C)c3ccccc23)c(OC)c1	/	/	40µM	/	/	/
O=C(O)CN1C(=O)/C(=C\C(Br)=C\c2ccccc2)SC1=S	.	35µM	.	.	.	.
CC(=Cc1ccccc1)C=C1SC(=S)N(CCCC(=O)Nc2ccc(C(=O)O)cc2)C1=O	/	?	?	/	.	/
CCC(C(=O)O)N1C(=O)/C(=C/C(C)=C/c2ccccc2)SC1=S (stereo not given)	.	?	.	.	.	.
CC(=C\c1ccccc1)/C=C1/SC(=S)N(C(C(=O)O)C(C)C)C1=O (stereo not given)	.	45µM	.	.	.	.
Cc1ccc(/C=C2\SC(=S)N(C(Cc3ccccc3)C(=O)O)C2=O)cc1 (stereo not given)	.	35µM	.	.	.	.
CC(/C=C1\SC(=S)N(CCCC(=O)Nc2ccc(C(=O)O)cc2)C1=O)=C\c1ccccc1	.	45µM	?	.	.	.
CCOc1ccc(CNS(=O)(=O)c2ccc3[nH]c4c(c3c2)CCCC4)cc1OC	.	?	.	.	.	/
CC(C)=CCC/C(C)=C/CNCC(O)CN1CCOCC1 (stereo not given)	/	0.63µM	/	/	/	/
OC(CN1CCOCC1)CN1CCOCC1	.	?	.	.	.	.
COc1cccc(NC(=S)N(Cc2ccc(C(=O)O)cc2)Cc2ccc(OC)c(OC)c2)c1	.	.	.	.	?	.
SMILES	miR-21 reporter	ALOX12 inh	PINK1 expr mod	ERG Ets-DNA blk	PTHR1 agonist	Giardia killer
Cc1ccc(C)c(NCC(=O)c2ccc(Cl)cc2)c1	.	35µM	.	.	.	.
Cc1cc(NC(=S)N(Cc2ccc(Cl)cc2)Cc2ccc(C(=O)O)cc2)ccc1Cl	.	40µM	.	.	.	.
Cc1ccc(NC(=S)N(Cc2ccc(Br)cc2)Cc2ccc(C(=O)O)cc2)cc1C	.	40µM	.	.	.	.
Cc1cc(C)cc(NC(=S)N(Cc2ccc(Br)cc2)Cc2ccc(C(=O)O)cc2)c1	.	28µM	.	.	.	.
Cc1ccc(C(=O)CNc2cc(C)ccc2C)cc1	.	.	.	.	.	.
CCOC(=O)c1sc(NC(=O)c2nc3nc(C)cc(C(F)F)n3n2)c(C(=O)OC)c1C	.	.	.	.	.	/
O=C(CC1CCCN(c2cnn(CC3CC3)c(=O)c2)C1)N1CCOCC1 (stereo not given)	/	.	/	/	/	/
c1cncc(-c2ccnc(NCCCN3CCCc4ccccc43)n2)c1	/	.	/	/	/	/
CC(=O)Nc1ccc(C(C)=NNC(=O)C2CCCC2)cc1	/	.	.	/	.	/
CCc1ccc(NC(=S)N(Cc2ccc(Cl)cc2)Cc2ccc(C(=O)O)cc2)cc1	.	40µM	.	.	.	.
COc1ccc(NC(=S)N(Cc2ccc(Cl)cc2)Cc2ccc(C(=O)O)cc2)cc1Cl	.	?	.	.	.	.
Cc1ccc(C)c(NC(=S)N(Cc2ccc(Cl)cc2)Cc2ccc(C(=O)O)cc2)c1	.	45µM	.	.	.	.
Cc1cccc(NC(=S)N(Cc2ccc(Cl)cc2)Cc2ccc(C(=O)O)cc2)c1	.	.	.	.	.	.
Cc1cc(C)cc(NC(=S)N(Cc2ccc(Cl)cc2)Cc2ccc(C(=O)O)cc2)c1	.	35µM	.	.	.	.
COc1ccc(CN(Cc2ccc(C(=O)O)cc2)C(=S)Nc2ccccc2C)cc1OC	.	.	.	.	.	.
Nc1nc(Br)c2ccccc2c1-c1ccccc1	.	.	.	.	.	.
COC(=O)c1ccc2nc(-c3ccc(Cl)cc3)c(CC3CCCCC3)n2c1	/	.	.	/	.	/
CCCCC(=O)Nc1c(S(=O)(=O)c2ccccc2)c(C)c(C)n1CCOC	/	.	/	/	/	/
Cc1ccc(S(=O)(=O)c2c(C)c(C)n(Cc3ccco3)c2N)cc1	/	45µM	/	/	/	/
COCCn1c(C)c(C)c(S(=O)(=O)c2ccccc2)c1N	.	?	.	35µM	.	.
COc1ccc(CCN2C(=O)N(c3ccc(C)cc3)C(=O)C2CC(=O)Nc2ccc(OC)cc2)cc1 (stereo not given)	.	.	.	.	.	/
COc1cccc(-c2nc3cc(NC(=O)c4ccc(C)c([N+](=O)[O-])c4)ccc3o2)c1	/	45µM	/	/	/	/
CC(C)(C)c1nc2cc(Cl)c([N+](=O)[O-])cc2o1	.	.	14µM	.	.	.
CC(C)(C)Nc1nc2cc([N+](=O)[O-])ccc2o1	.	.	.	.	.	?
COc1ccccc1NC(=O)c1ccccc1C(=O)Nc1ccccc1OC	.	.	.	.	.	.
COc1ccccc1NC(=O)c1ccccc1NC(=O)c1ccccc1C(=O)O	.	1.8µM	.	.	.	.
CC(=O)Oc1ccc(C(=O)Nc2ccccc2C(=O)Nc2ccc(C(=O)O)cc2)cc1	.	4.5µM	.	?	.	.

Assay outcomes: PubChem, National Center for Advancing Translational Sciences (NCATS)
